Like-named read-outs stand apart in the source and are kept apart here.
Experiments:
[1] = test system: non-glycated human serum albumin (HSA); details: for quenching of HSA fluorescence: binary system, highest molar ratio drug:albumin (TB 20:1, LOS 10:1), albumin 5 × 10^−6 mol∙L^−1; for quenching of HSA fluorescence in the ternary system lower than in the binary system by: other drug at constant concentration (LOS for TB, TB for LOS)
[2] = test system: glycated human serum albumin (gHSAFRC); details: for Stern-Volmer constant KSV / Association constant Ka, Klotz Method / Association constant Ka, Scatchard Method / Hill's coefficient nH, Hill Method / fractional accessible protein fluorescence fa / mean number of drug molecules bound with one molecule of albumin n, Klotz Method / mean number of drug molecules bound with one molecule of albumin n, Scatchard Method: ± RSD; for decrease of gHSAFRC fluorescence (quenching): highest molar ratio drug:albumin (TB 20:1, LOS 10:1), albumin 5 × 10^−6 mol∙L^−1; for quenching of gHSAFRC fluorescence in the ternary system lower than in the binary system by: other drug at constant concentration (LOS for TB, TB for LOS)
[3] = binary system drug-HSA, λex = 275 nm, ± RSD
[4] = binary system drug-HSA, λex = 295 nm, ± RSD
[5] = ternary system with HSA: other drug constant at 5 × 10^−6 mol∙L^−1 (LOS(const) for TB, TB(const) for LOS), λex = 275 nm, ± RSD
[6] = ternary system with HSA: other drug constant at 5 × 10^−6 mol∙L^−1 (LOS(const) for TB, TB(const) for LOS), λex = 295 nm, ± RSD
[7] = ternary system with HSA: other drug constant at 5 × 10^−6 mol∙L^−1, 1:1 to albumin (LOS(const) for TB, TB(const) for LOS), λex = 275 nm, ± RSD
[8] = ternary system with HSA: other drug constant at 5 × 10^−6 mol∙L^−1, 1:1 to albumin (LOS(const) for TB, TB(const) for LOS), λex = 295 nm, ± RSD
[9] = binary system drug-gHSAFRC, λex = 275 nm
[10] = binary system drug-gHSAFRC, λex = 295 nm
[11] = ternary system with gHSAFRC: other drug constant at 5 × 10^−6 mol∙L^−1 (LOS(const) for TB, TB(const) for LOS), λex = 275 nm
[12] = ternary system with gHSAFRC: other drug constant at 5 × 10^−6 mol∙L^−1 (LOS(const) for TB, TB(const) for LOS), λex = 295 nm
[13] = ternary system with gHSAFRC: other drug constant at 5 × 10^−6 mol∙L^−1, 1:1 to albumin (LOS(const) for TB, TB(const) for LOS), λex = 275 nm

`CCCCc1nc(Cl)c(CO)n1Cc1ccc(-c2ccccc2-c2nnn[nH]2)cc1` [LOS, (2-butyl-4-chloro-1-{[2′-(1H-tetrazol-5-yl)-4-biphenylyl]methyl}-1H-imidazol-5-yl)methanol] was tested, and the “Stern-Volmer constant KSV” value ([1]; binary system drug-HSA, λex = 275 nm, Stern-Volmer modified by Lehrer, 37 °C, ± RSD) was 6.24 ± 0.02 × 10^4 mol^−1∙L, the “biomolecular quenching rate constant kq” value ([1]; binary system drug-HSA, λex = 275 nm, kq=KSV/τ0, τ0 = 6.2 × 10^−9 s) was 10.06 ± 0.03 × 10^12 mol^−1∙L∙s^−1 and the “Association constant Ka, Klotz Method” value [1, 3] was 8.64 ± 0.11 × 10^4 mol^−1∙L. For the same molecule, the “Association constant Ka, Scatchard Method” value [1, 3] was 8.13 ± 0.41 × 10^4 mol^−1∙L, the “Hill's coefficient nH, Hill Method” value [1, 3] was 1.03 ± 0.03 and the “fractional accessible protein fluorescence fa” value [1, 3] was 0.47 ± 0.01. The “mean number of drug molecules bound with one molecule of albumin n, Klotz Method” value [1, 3] was 0.98 ± 0.02, the “Stern-Volmer constant KSV” value ([1]; binary system drug-HSA, λex = 295 nm, Stern-Volmer modified by Lehrer, 37 °C, ± RSD) was 3.71 ± 0.01 × 10^4 mol^−1∙L and the “biomolecular quenching rate constant kq” value ([1]; binary system drug-HSA, λex = 295 nm, kq=KSV/τ0, τ0 = 6.2 × 10^−9 s) was 5.98 ± 0.02 × 10^12 mol^−1∙L∙s^−1. For the same molecule, the “Association constant Ka, Klotz Method” value [1, 4] was 4.69 ± 0.01 × 10^4 mol^−1∙L, the “Association constant Ka, Scatchard Method” value [1, 4] was 4.62 ± 0.07 × 10^4 mol^−1∙L and the “Hill's coefficient nH, Hill Method” value [1, 4] was 1.03 ± 0.01. For the same molecule, the “fractional accessible protein fluorescence fa” value [1, 4] was 0.72 ± 0.01, the “mean number of drug molecules bound with one molecule of albumin n, Klotz Method” value [1, 4] was 1.02 ± 0.01 and the “mean number of drug molecules bound with one molecule of albumin n, Scatchard Method” value [1, 4] was 1.02 ± 0.02. The “quenching of HSA fluorescence” value ([1]; λex = 275 nm) was 36%, the “quenching of HSA fluorescence” value ([1]; λex = 295 nm) was 47% and the “quenching of HSA fluorescence in the ternary system lower than in the binary system by” value ([1]; λex = 275 nm) was 7%. For the same molecule, the “quenching of HSA fluorescence in the ternary system lower than in the binary system by” value ([1]; λex = 295 nm) was 5%, the “biomolecular quenching rate constant kq” value ([1]; ternary system with HSA: other drug constant at 5 × 10^−6 mol∙L^−1 (LOS(const) for TB, TB(const) for LOS), λex = 275 nm, kq=KSV/τ0) was 2.79 ± 0.14 × 10^12 mol^−1∙L∙s^−1 and the “Association constant Ka, Klotz Method” value [1, 5] was 1.85 ± 0.09 × 10^4 mol^−1∙L. For the same molecule, the “Hill's coefficient nH, Hill Method” value [1, 5] was 0.80 ± 0.03, the “fractional accessible protein fluorescence fa” value [1, 5] was 0.64 ± 0.05 and the “mean number of drug molecules bound with one molecule of albumin n, Klotz Method” value [1, 5] was 0.55 ± 0.04. The “biomolecular quenching rate constant kq” value ([1]; ternary system with HSA: other drug constant at 5 × 10^−6 mol∙L^−1 (LOS(const) for TB, TB(const) for LOS), λex = 295 nm, kq=KSV/τ0) was 3.76 ± 0.05 × 10^12 mol^−1∙L∙s^−1, the “Association constant Ka, Klotz Method” value [1, 6] was 2.66 ± 0.03 × 10^4 mol^−1∙L and the “Hill's coefficient nH, Hill Method” value [1, 6] was 0.90 ± 0.02. The “fractional accessible protein fluorescence fa” value [1, 6] was 0.79 ± 0.02, the “mean number of drug molecules bound with one molecule of albumin n, Klotz Method” value [1, 6] was 0.81 ± 0.02 and the “Association constant Ka, Scatchard Method” value [1, 7] was 2.10 ± 0.18 × 10^4 mol^−1∙L. For the same molecule, the “Stern-Volmer constant KSV” value [1, 7] was 1.73 ± 0.09 × 10^4 mol^−1∙L, the “Association constant Ka, Scatchard Method” value [1, 8] was 2.64 ± 0.09 × 10^4 mol^−1∙L and the “Stern-Volmer constant KSV” value [1, 8] was 2.33 ± 0.03 × 10^4 mol^−1∙L. For the same molecule, the “Stern-Volmer constant KSV” value ([2]; binary system drug-gHSAFRC, λex = 275 nm, Stern-Volmer modified by Lehrer, 37 °C) was 6.92 ± 0.03 × 10^4 mol^−1∙L, the “biomolecular quenching rate constant kq” value ([2]; binary system drug-gHSAFRC, λex = 275 nm, kq=KSV/τ0, τ0 = 6.2 × 10^−9 s) was 11.16 ± 0.05 × 10^12 mol^−1∙L∙s^−1 and the “Association constant Ka, Klotz Method” value [2, 9] was 9.63 ± 0.08 × 10^4 mol^−1∙L. The “Association constant Ka, Scatchard Method” value [2, 9] was 9.21 ± 0.40 × 10^4 mol^−1∙L, the “Hill's coefficient nH, Hill Method” value [2, 9] was 0.97 ± 0.02 and the “fractional accessible protein fluorescence fa” value [2, 9] was 0.42 ± 0.01. The “mean number of drug molecules bound with one molecule of albumin n, Klotz Method” value [2, 9] was 0.96 ± 0.02, the “Stern-Volmer constant KSV” value ([2]; binary system drug-gHSAFRC, λex = 295 nm, Stern-Volmer modified by Lehrer, 37 °C) was 4.15 ± 0.02 × 10^4 mol^−1∙L and the “biomolecular quenching rate constant kq” value ([2]; binary system drug-gHSAFRC, λex = 295 nm, kq=KSV/τ0, τ0 = 6.2 × 10^−9 s) was 6.69 ± 0.03 × 10^12 mol^−1∙L∙s^−1. The “Association constant Ka, Klotz Method” value [2, 10] was 5.34 ± 0.01 × 10^4 mol^−1∙L, the “Association constant Ka, Scatchard Method” value [2, 10] was 5.31 ± 0.11 × 10^4 mol^−1∙L and the “Hill's coefficient nH, Hill Method” value [2, 10] was 0.97 ± 0.01. For the same molecule, the “fractional accessible protein fluorescence fa” value [2, 10] was 0.74 ± 0.01, the “mean number of drug molecules bound with one molecule of albumin n, Klotz Method” value [2, 10] was 0.97 ± 0.01 and the “mean number of drug molecules bound with one molecule of albumin n, Scatchard Method” value [2, 10] was 0.97 ± 0.03. For the same molecule, the “quenching of gHSAFRC lower than of HSA by” value ([2]; binary system, λex = 275 nm) was 3%, the “decrease of gHSAFRC fluorescence (quenching)” value ([2]; binary system, λex = 275 nm) was 33% and the “quenching of gHSAFRC greater than of HSA by” value ([2]; binary system, λex = 295 nm) was 3%. For the same molecule, the “decrease of gHSAFRC fluorescence (quenching)” value ([2]; binary system, λex = 295 nm) was 50%, the “quenching of gHSAFRC fluorescence in the ternary system lower than in the binary system by” value ([2]; λex = 275 nm) was 3% and the “quenching of gHSAFRC fluorescence in the ternary system lower than in the binary system by” value ([2]; λex = 295 nm) was 4%. The “biomolecular quenching rate constant kq” value ([2]; ternary system with gHSAFRC: other drug constant at 5 × 10^−6 mol∙L^−1 (LOS(const) for TB, TB(const) for LOS), λex = 275 nm, kq=KSV/τ0) was 12.44 ± 0.14 × 10^12 mol^−1∙L∙s^−1, the “Association constant Ka, Klotz Method” value [2, 11] was 11.17 ± 0.27 × 10^4 mol^−1∙L and the “Hill's coefficient nH, Hill Method” value [2, 11] was 1.12 ± 0.06. The “fractional accessible protein fluorescence fa” value [2, 11] was 0.37 ± 0.01, the “mean number of drug molecules bound with one molecule of albumin n, Klotz Method” value [2, 11] was 1.01 ± 0.02 and the “mean number of drug molecules bound with one molecule of albumin n, Scatchard Method” value [2, 11] was 1.03 ± 0.12. For the same molecule, the “biomolecular quenching rate constant kq” value ([2]; ternary system with gHSAFRC: other drug constant at 5 × 10^−6 mol∙L^−1 (LOS(const) for TB, TB(const) for LOS), λex = 295 nm, kq=KSV/τ0) was 5.42 ± 0.03 × 10^12 mol^−1∙L∙s^−1, the “Association constant Ka, Klotz Method” value [2, 12] was 4.24 ± 0.02 × 10^4 mol^−1∙L and the “fractional accessible protein fluorescence fa” value [2, 12] was 0.73 ± 0.01. For the same molecule, the “Association constant Ka, Scatchard Method” value [2, 13] was 10.37 ± 0.70 × 10^4 mol^−1∙L, the “Stern-Volmer constant KSV” value [2, 13] was 7.71 ± 0.09 × 10^4 mol^−1∙L and the “Association constant Ka, Scatchard Method” value ([2]; ternary system with gHSAFRC: other drug constant at 5 × 10^−6 mol∙L^−1, 1:1 to albumin (LOS(const) for TB, TB(const) for LOS), λex = 295 nm) was 4.26 ± 0.07 × 10^4 mol^−1∙L.

Reference: PMC6149683, “In Vitro Investigation of the Interaction of Tolbutamide and Losartan with Human Serum Albumin in Hyperglycemia States” (Molecules : A Journal of Synthetic Chemistry and Natural …, 2017)
